target: human β3 adrenergic receptor (Homo sapiens, UniProt P13945); assay: Beta-3 agonist in vitro functional assay: cAMP production (LANCE TR-FRET) in CHO cells stably transfected with the cloned β3 receptor; assay type: cell-based; conditions: read-out: Human β3 agonist functional activity; Table 4; cAMP, CHO cells

The chains behind the UniProt entries cited, without tags or fusion partners.
UniProt P13945, whole entry: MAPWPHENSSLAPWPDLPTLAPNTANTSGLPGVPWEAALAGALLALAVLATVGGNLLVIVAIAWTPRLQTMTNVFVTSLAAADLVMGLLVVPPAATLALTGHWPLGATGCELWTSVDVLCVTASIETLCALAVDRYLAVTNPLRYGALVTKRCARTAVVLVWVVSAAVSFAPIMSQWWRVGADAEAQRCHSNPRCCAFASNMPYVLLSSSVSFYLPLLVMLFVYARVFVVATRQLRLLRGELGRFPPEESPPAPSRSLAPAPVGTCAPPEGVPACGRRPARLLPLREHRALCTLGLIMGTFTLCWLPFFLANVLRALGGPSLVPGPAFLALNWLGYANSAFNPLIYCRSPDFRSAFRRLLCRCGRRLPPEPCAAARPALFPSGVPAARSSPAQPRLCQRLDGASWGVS

EC50 [nM] | Structure (SMILES)
1 to 9.9 | O=C(c1ccc(C[C@@H]2CC[C@H]([C@H](O)c3ccccc3)N2)cc1)N1CC2CC(n3cccn3)CC2C1 (stereo partly drawn) [Example 1, (R)-phenyl[(2R,5S)-5-(4-{[5-(1H-pyrazol-1-yl)hexahydrocyclopenta[c]pyrrol-2(1H)-yl]carbonyl}benzyl)pyrrolidin-2-yl]methanol]
100 to 999 | COC(=O)C1CN(C(=O)c2ccc(C[C@@H]3CC[C@H]([C@H](O)c4ccccc4)N3)cc2)C1

same assay, conditions: read-out: Human β3 agonist functional activity; Table 5; cAMP, CHO cells

EC50 [nM] | Structure (SMILES)
10 to 99.9 | COc1ccccc1CC1CCN(C(=O)c2ccc(C[C@@H]3CC[C@H]([C@H](O)c4ccccc4)N3)cc2)CC1
10 to 99.9 | O=C(c1ccc(C[C@@H]2CC[C@H]([C@H](O)c3cccnc3)N2)cc1)N1CCC(n2ncnn2)CC1
10 to 99.9 | O=C(c1ccc(C[C@@H]2CC[C@H]([C@H](O)c3ccccc3)N2)cc1)N1CCC(n2cccn2)CC1 [Example 64, (R)-phenyl[(2R,5S)-5-(4-{[4-(1H-pyrazol-1-yl)-piperidin-1-yl]carbonyl}benzyl)pyrrolidine-2-yl]methanol]

same assay, conditions: read-out: Human β3 agonist functional activity; Table 6; cAMP, CHO cells

EC50 [nM] | Structure (SMILES)
1 to 9.9 | Cc1nnc([C@H]2[C@@H]3CN(C(=O)c4ccc(C[C@@H]5CC[C@H]([C@H](O)c6ccccc6)N5)cc4)C[C@@H]32)o1
100 to 999 | O=C(c1ccc(C[C@@H]2CC[C@H]([C@H](O)c3ccccc3)N2)cc1)N1C[C@@H]2[C@H](C1)[C@H]2Cn1ccnn1
10 to 99.9 | Cc1noc([C@H]2[C@@H]3CN(C(=O)c4ccc(C[C@@H]5CC[C@H]([C@H](O)c6ccccc6)N5)cc4)C[C@@H]32)n1
10 to 99.9 | CC([C@H]1[C@@H]2CN(C(=O)c3ccc(C[C@@H]4CC[C@H]([C@H](O)c5ccccc5)N4)cc3)C[C@@H]21)n1cnnn1 (some centres unmarked)
1 to 9.9 | O=C(c1ccc(C[C@@H]2CC[C@H]([C@H](O)c3ccccc3)N2)cc1)N1C[C@@H]2[C@H](C1)[C@H]2c1nnc(C2CC2)o1
1 to 9.9 | CC(C)n1nnnc1[C@H]1[C@@H]2CN(C(=O)c3ccc(C[C@@H]4CC[C@H]([C@H](O)c5ccccc5)N4)cc3)C[C@@H]21
10 to 99.9 | Cn1cc([C@H]2[C@@H]3CN(C(=O)c4ccc(C[C@@H]5CC[C@H]([C@H](O)c6ccccc6)N5)cc4)C[C@@H]32)nn1
1 to 9.9 | O=C(c1ccc(C[C@@H]2CC[C@H]([C@H](O)c3ccccc3)N2)cc1)N1C[C@@H]2[C@H](C1)[C@H]2c1noc(-c2ccccn2)n1
100 to 999 | N[C@@H]1[C@H]2CN(C(=O)c3ccc(C[C@@H]4CC[C@H]([C@H](O)c5ccccc5)N4)cc3)C[C@@H]12
10 to 99.9 | O=C(c1ccc(C[C@@H]2CC[C@H]([C@H](O)c3ccccc3)N2)cc1)N1C[C@@H]2[C@H](C1)[C@H]2c1ncco1
1 to 9.9 | O=C(c1ccc(C[C@@H]2CC[C@H]([C@H](O)c3ccccc3)N2)cc1)N1C[C@@H]2[C@H](C1)[C@H]2c1nnc(CO)o1
100 to 999 | CC([C@H]1[C@@H]2CN(C(=O)c3ccc(C[C@@H]4CC[C@H]([C@H](O)c5ccccc5)N4)cc3)C[C@@H]21)n1cncn1 (some centres unmarked)
100 to 999 | O=C(c1ccc(C[C@@H]2CC[C@H]([C@H](O)c3ccccc3)N2)cc1)N1C[C@@H]2[C@H](C1)[C@H]2C(=O)N1CCCC1
100 to 999 | Cc1nnc([C@H]2[C@@H]3CN(C(=O)c4ccc(C[C@@H]5CC[C@H]([C@H](O)c6ccccc6)N5)cc4)C[C@@H]32)[nH]1
10 to 99.9 | O=C(c1ccc(C[C@@H]2CC[C@H]([C@H](O)c3ccccc3)N2)cc1)N1C[C@@H]2[C@H](C1)[C@H]2c1nnc(C(F)(F)F)o1
100 to 999 | CC([C@H]1[C@@H]2CN(C(=O)c3ccc(C[C@@H]4CC[C@H]([C@H](O)c5ccccc5)N4)cc3)C[C@@H]21)n1ccnn1 (some centres unmarked)
10 to 99.9 | CC([C@H]1[C@@H]2CN(C(=O)c3ccc(C[C@@H]4CC[C@H]([C@H](O)c5ccccc5)N4)cc3)C[C@@H]21)n1ncnn1 (some centres unmarked)
10 to 99.9 | CCNC(=O)[C@H]1[C@@H]2CN(C(=O)c3ccc(C[C@@H]4CC[C@H]([C@H](O)c5ccccc5)N4)cc3)C[C@@H]21
10 to 99.9 | CC([C@H]1[C@@H]2CN(C(=O)c3ccc(C[C@@H]4CC[C@H]([C@H](O)c5ccccc5)N4)cc3)C[C@@H]21)n1nccn1 (some centres unmarked)
10 to 99.9 | O=C(c1ccc(C[C@@H]2CC[C@H]([C@H](O)c3ccccc3)N2)cc1)N1C[C@@H]2[C@H](C1)[C@H]2Cn1cnnn1
1 to 9.9 | Cc1nc([C@H]2[C@@H]3CN(C(=O)c4ccc(C[C@@H]5CC[C@H]([C@H](O)c6ccccc6)N5)cc4)C[C@@H]32)no1
1 to 9.9 | O=C(c1ccc(C[C@@H]2CC[C@H]([C@H](O)c3ccccc3)N2)cc1)N1C[C@@H]2[C@H](C1)[C@H]2c1noc(C2CC2)n1

Further lines, the molecule ahead of its results:

Structure (SMILES) | EC50 [nM]
Nc1nnc([C@H]2[C@@H]3CN(C(=O)c4ccc(C[C@@H]5CC[C@H]([C@H](O)c6ccccc6)N5)cc4)C[C@@H]32)o1 | 1 to 9.9
Cn1nnnc1[C@H]1[C@@H]2CN(C(=O)c3ccc(C[C@@H]4CC[C@H]([C@H](O)c5ccccc5)N4)cc3)C[C@@H]21 | 10 to 99.9
Cc1nnc([C@H]2[C@@H]3CN(C(=O)c4ccc(C[C@@H]5CC[C@H]([C@H](O)c6ccccc6)N5)cc4)C[C@@H]32)s1 | 10 to 99.9
O=C(c1ccc(C[C@@H]2CC[C@H]([C@H](O)c3ccccc3)N2)cc1)N1C[C@@H]2[C@@H](CO)[C@@H]2C1 | 10 to 99.9
O=C(c1ccc(C[C@@H]2CC[C@H]([C@H](O)c3ccccc3)N2)cc1)N1C[C@@H]2[C@H](C1)[C@H]2c1noc(C2(O)CC2)n1 | 1 to 9.9
CCOC(=O)[C@H]1[C@@H]2CN(C(=O)c3ccc(C[C@@H]4CC[C@H]([C@H](O)c5cccnc5)N4)cc3)C[C@@H]21 | 1 to 9.9
Cc1nnnn1[C@H]1[C@@H]2CN(C(=O)c3ccc(C[C@@H]4CC[C@H]([C@H](O)c5ccccc5)N4)cc3)C[C@@H]21 | 100 to 999
O=C(c1ccc(C[C@@H]2CC[C@H]([C@H](O)c3ccccc3)N2)cc1)N1C[C@@H]2[C@H](C1)[C@H]2c1nnc[nH]1 | 10 to 99.9
CCN(C)C(=O)[C@H]1[C@@H]2CN(C(=O)c3ccc(C[C@@H]4CC[C@H]([C@H](O)c5ccccc5)N4)cc3)C[C@@H]21 | 100 to 999
N#C[C@@H]1[C@H]2CN(C(=O)c3ccc(C[C@@H]4CC[C@H]([C@H](O)c5ccccc5)N4)cc3)C[C@@H]12 | 100 to 999
CC(C)(O)c1nnc([C@H]2[C@@H]3CN(C(=O)c4ccc(C[C@@H]5CC[C@H]([C@H](O)c6ccccc6)N5)cc4)C[C@@H]32)o1 | 10 to 99.9
CCc1nnc([C@H]2[C@@H]3CN(C(=O)c4ccc(C[C@@H]5CC[C@H]([C@H](O)c6ccccc6)N5)cc4)C[C@@H]32)o1 | 1 to 9.9
CC(C)(O)c1nc([C@H]2[C@@H]3CN(C(=O)c4ccc(C[C@@H]5CC[C@H]([C@H](O)c6ccccc6)N5)cc4)C[C@@H]32)no1 | 10 to 99.9
O=C(c1ccc(C[C@@H]2CC[C@H]([C@H](O)c3ccccc3)N2)cc1)N1C[C@@H]2[C@H](C1)[C@H]2c1noc(CO)n1 | 1 to 9.9
O=C(c1ccc(C[C@@H]2CC[C@H]([C@H](O)c3ccccc3)N2)cc1)N1C[C@@H]2[C@H](C1)[C@H]2Cn1nccn1 | 10 to 99.9
Cc1cnc([C@H]2[C@@H]3CN(C(=O)c4ccc(C[C@@H]5CC[C@H]([C@H](O)c6ccccc6)N5)cc4)C[C@@H]32)o1 | 1 to 9.9
Cc1cnc([C@H]2[C@@H]3CN(C(=O)c4ccc(C[C@@H]5CC[C@H]([C@H](O)c6cccnc6)N5)cc4)C[C@@H]32)o1 | 10 to 99.9
O=C(O)[C@H]1[C@@H]2CN(C(=O)c3ccc(C[C@@H]4CC[C@H]([C@H](O)c5ccccc5)N4)cc3)C[C@@H]21 | 1 to 9.9
CC([C@H]1[C@@H]2CN(C(=O)c3ccc(C[C@@H]4CC[C@H]([C@H](O)c5ccccc5)N4)cc3)C[C@@H]21)n1cccn1 (some centres unmarked) | 1 to 9.9
O=C(c1ccc(C[C@@H]2CC[C@H]([C@H](O)c3ccccc3)N2)cc1)N1C[C@@H]2[C@H](C1)[C@H]2Cn1cccn1 | 10 to 99.9
O=C(c1ccc(C[C@@H]2CC[C@H]([C@H](O)c3cccnc3)N2)cc1)N1C[C@@H]2[C@H](C1)[C@H]2c1nnco1 | 1 to 9.9
O=C(c1ccc(C[C@@H]2CC[C@H]([C@H](O)c3ccccc3)N2)cc1)N1C[C@@H]2[C@H](C1)[C@H]2c1nnc(CC(F)(F)F)o1 | 1 to 9.9
CC(C)n1cc([C@H]2[C@@H]3CN(C(=O)c4ccc(C[C@@H]5CC[C@H]([C@H](O)c6ccccc6)N5)cc4)C[C@@H]32)nn1 | 10 to 99.9
O=C(c1ccc(CC2CCC(C(O)c3ccccc3)N2)cc1)N1CC2C(C1)C2Cn1cncn1 (centres unmarked) | 100 to 999
O=C(c1ccc(C[C@@H]2CC[C@H]([C@H](O)c3ccccc3)N2)cc1)N1C[C@@H]2[C@H](C1)[C@H]2c1c[nH]nn1 | 1 to 9.9
Cc1coc([C@H]2[C@@H]3CN(C(=O)c4ccc(C[C@@H]5CC[C@H]([C@H](O)c6ccccc6)N5)cc4)C[C@@H]32)n1 | 10 to 99.9
O=C(c1ccc(C[C@@H]2CC[C@H]([C@H](O)c3ccccc3)N2)cc1)N1C[C@@H]2[C@H](C1)[C@H]2Cn1ncnn1 | 10 to 99.9
O=C(c1ccc(C[C@@H]2CC[C@H]([C@H](O)c3ccccc3)N2)cc1)N1C[C@@H]2[C@H](C1)[C@H]2c1ncno1 | 1 to 9.9

same assay, conditions: read-out: Human β3 agonist functional activity; Table 8; Beta-3 agonist in vitro functional assay

EC50 [nM] | Structure (SMILES)
1 to 9.9 | O=C(c1ccc(C[C@@H]2CC[C@H]([C@H](O)c3ccccc3)N2)cc1)N1CCC2(CCOC2=O)CC1 [Example 239, 8-[4-({(2S,5R)-5-[(R)-hydroxy(phenyl)methyl]pyrrolidin-2-yl}methyl)benzoyl]-2-oxa-8-azaspiro[4.5]decan-1-one]
10 to 99.9 | O=C(c1ccc(C[C@@H]2CC[C@H]([C@H](O)c3ccccc3)N2)cc1)N1CCC2(CCCC2(F)F)CC1
10 to 99.9 | CS(=O)(=O)C1OC2(CCN(C(=O)c3ccc(C[C@@H]4CC[C@H]([C@H](O)c5ccccc5)N4)cc3)CC2)c2ccccc21 (some centres unmarked)

same assay, conditions: read-out: Human β3 agonist functional activity; Table 9; Beta-3 agonist in vitro functional assay

EC50 [nM] | Structure (SMILES)
100 to 999 | O=C(c1ccc(C[C@@H]2CC[C@H]([C@H](O)c3ccccc3)N2)cc1)N1CCNCC1

same assay, conditions: read-out: Human β3 agonist functional activity; Table 11; cAMP, CHO cells

EC50 [nM] | Structure (SMILES)
100 to 999 | O=C(c1ccc(C[C@@H]2CC[C@H]([C@H](O)c3ccccc3)N2)cc1)N1CCn2cc(C(F)(F)F)nc2C1

same assay, conditions: read-out: Human β3 agonist functional activity; Table 12; human β3 functional activity given as ranges

EC50 [nM] | Structure (SMILES)
1 to 9.9 | CC(c1ccn[nH]1)N1CCN(C(=O)c2ccc(C[C@@H]3CC[C@H]([C@H](O)c4ccccc4)N3)cc2)CC1 (single isomer, unassigned)
10 to 99.9 | O=C(c1ccc(C[C@@H]2CC[C@H]([C@H](O)c3ccccc3)N2)cc1)N1CCN(C2CCCc3cccnc32)CC1 (single isomer, unassigned)
